As a reminder, the inhibition is the change of the read-out against control, counted positive when it falls.

The entries are a selection whose mix differs from that of the whole data set. Active and inactive are the calls of the source.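 Rule for the calls: active = drop in luminescence signal, shown as inhibition above about 50% in the replicate tests (limit read from the data, passing the limit was not always enough); inconclusive = probably only some replicates passing the limit; inactive = the rest.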

This test relates to Drosophila bursicon receptor LGR2 (rickets). Put plainly: LGR2 cAMP reporter signal reduction – cell-based, HEK293, CRE-luciferase reporter, bursicon stimulation, primary screen (AID 720647).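 Note: agonist challenge used bursicon conditioned medium at about half maximal strength.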 The following applies: bursicon-stimulated, 4 h, at 9.99 µM, hits give high values. In general terms: Reporter assays use an easily measured gene product as a stand-in for the process of interest.
Take `Cc1cc(C)cc(N(C(=O)c2ccccc2)C2CCN(C(=O)OC(C)(C)C)CC2)c1`: the inhibition was inactive: 13.2%.

Consider `O=C(NCC1(N2CCCCC2)CCCCC1)c1ccc(Cl)nc1`, for which the inhibition is inactive: -4.08%.

Regarding `O=c1[nH]c2ccccc2n1C1CCN(C(c2ccccc2OC(F)(F)F)c2nnnn2C2CCCCC2)CC1` (configuration not stated), the inhibition was inactive: 28.1%.

As for `COc1ccc(Cl)cc1C(=O)NCC1(N2CCOCC2)CCCCC1`, the inhibition was inactive: -9.26%.

As for `N#CC1(Nc2ccccc2)CCN(Cc2ccccc2)CC1`, the inhibition was inactive: 7.56%.

For `O=C(NCC1(N2CCCCC2)CCCCC1)c1ccc(Cl)s1`, the inhibition was inactive: -2.43%.

In the case of `O=c1[nH]c2ccccc2n1C1CCN(C(c2cc3ccccc3o2)c2nnnn2C2CCCCC2)CC1` (configuration not stated), the inhibition was inactive: 16.9%.

Take `O=C(OC1CN2CCC1CC2)C1c2ccccc2Oc2ccccc21` (configuration not stated): the inhibition was inactive: -5.59%.

For the compound `CCCCn1nnnc1C(c1ccc(OC)cc1)N1CCC(n2c(=O)[nH]c3ccccc32)CC1` (configuration not stated), the inhibition is inactive: 9.89%.

As to `CCOC(=O)N1CCC(Nc2ccc(OC)cc2)CC1`, the inhibition was inactive: 24.2%.

As to `CC(C)(C)OC(=O)N1CCC(N(C(=O)c2ccccc2)c2ccc(F)cc2)CC1`, the inhibition was inactive: 6.98%.

On to `COc1ccc(C(=O)NCC2(N3CCCCC3)CCCCC2)c(OC)c1OC`, for which the inhibition was inactive: 10.9%.

As to `CCC(c1nnnn1C1CCCC1)N1CCC(n2c(=O)[nH]c3ccccc32)CC1` (configuration not stated), the inhibition is inactive: 1.74%.

On to `COc1ccc(C(=O)NCC2(N3CCCCC3)CCCCC2)cc1`, for which the inhibition was inactive: -7.39%.

Regarding `O=C(NCC1(N2CCCCC2)CCCCC1)c1cccs1`, the inhibition was inactive: -12.4%.

Consider `CCCCn1nnnc1C(CC)N1CCC(n2c(=O)[nH]c3ccccc32)CC1` (configuration not stated), for which the inhibition is inactive: -4.79%.

For the compound `CCCCn1nnnc1C(c1cccs1)N1CCC(n2c(=O)[nH]c3ccccc32)CC1` (configuration not stated), the inhibition was inactive: 8.27%.

`O=C(NCC1(N2CCCCC2)CCCCC1)c1ccc(=O)[nH]c1`: the inhibition was inactive: -7.34%.

`Cc1cccc(NC2(C#N)CCN(Cc3ccccc3)CC2)c1`: the inhibition is inactive: -4.02%.

Take `CSc1ccccc1C(=O)NCC1(N2CCCCC2)CCCCC1`: the inhibition is inactive: -17.7%.

Consider `O=c1[nH]c2ccccc2n1C1CCN(C(c2ccccc2)c2nnnn2C2CCCCC2)CC1` (configuration not stated), for which the inhibition was inactive: 3.69%.

`CCOC(=O)N1CCC(Nc2cccc(C)c2)CC1`: the inhibition was inactive: 21.9%.

Consider `COc1cc(C(=O)NCC2(N(C)C)CCCCC2)ccc1OC(F)F`, for which the inhibition was inactive: -1.45%.

With `O=c1[nH]c2ccccc2n1C1CCN(C(c2cccc3ccccc23)c2nnnn2C2CCCC2)CC1` (configuration not stated), the inhibition was inactive: 29.6%.

As to `CC(C)(C)n1nnnc1C(c1ccccc1)N1CCC(n2c(=O)[nH]c3ccccc32)CC1` (configuration not stated), the inhibition is inactive: 9.11%.

With `CCOC(=O)N1CCC(Nc2ccc(F)cc2)CC1`, the inhibition is inactive: 17.1%.

On to `CCCCOc1ccc(C(=O)NCC2(N3CCOCC3)CCCCC2)cc1`, for which the inhibition was inactive: -3.21%.

Take `O=P1(N(CCCl)CCCl)SCCCS1`: the inhibition is inactive: -2.07%.

Turning to `CCCCn1nnnc1C(c1cc2ccccc2o1)N1CCC(n2c(=O)[nH]c3ccccc32)CC1` (configuration not stated), the inhibition is inactive: 13.3%.

In the case of `O=C(NCC1(N2CCCCC2)CCCCC1)c1ccc(F)cc1`, the inhibition is inactive: -1.68%.

On to `O=C(NCC1(N2CCCCC2)CCCCC1)c1cccc(C(F)(F)F)c1`, for which the inhibition was inactive: 5.28%.

As to `O=C(NCC1(N2CCOCC2)CCCCC1)c1cc(=O)[nH]c2ccccc12`, the inhibition is inactive: 12.5%.

As for `COc1cc(C(=O)NCC2(N3CCCCC3)CCCCC2)ccc1OC(F)F`, the inhibition is inactive: -26.3%.

As for `CC(C)c1ccc(C(=O)NCC2(N3CCOCC3)CCCCC2)cc1`, the inhibition is inactive: -25.8%.

`COc1ccc(NC2CCN(C(=O)OC(C)(C)C)CC2)cc1`: the inhibition was inactive: 7.81%.

On to `CN1CCN(CCOC(=O)C(O)(c2ccccc2)c2ccccc2)CC1`, for which the inhibition is inactive: 6.87%.

Consider `CCCCn1nnnc1C(c1cccc2ccccc12)N1CCC(n2c(=O)[nH]c3ccccc32)CC1` (configuration not stated), for which the inhibition is inactive: 25.4%.

With `O=C(NCC1(N2CCCCC2)CCCCC1)c1ccc(OC(F)F)cc1`, the inhibition is inactive: 7.74%.

On to `CC(C)(C)n1nnnc1C(c1ccccc1OC(F)(F)F)N1CCC(n2c(=O)[nH]c3ccccc32)CC1` (configuration not stated), for which the inhibition is inactive: 16.5%.

With `O=c1[nH]c2ccccc2n1C1CCN(C(c2ccccc2OC(F)(F)F)c2nnnn2C2CCCC2)CC1` (configuration not stated), the inhibition is inactive: 22.2%.

On to `CCN1CCC(Nc2ccc(Cl)cc2)CC1`, for which the inhibition was inactive: -1.38%.

As for `CSc1ccc(C(=O)NCC2(N3CCOCC3)CCCCC2)cc1`, the inhibition is inactive: -33.6%.

Take `O=C(NCC1(N2CCCCC2)CCCCC1)c1cccc([N+](=O)[O-])c1`: the inhibition was inactive: 8.36%.

Turning to `CN1CCC(Nc2cccc(F)c2)CC1`, the inhibition is inactive: -1.43%.

As for `O=C(NCC1(N2CCCCC2)CCCCC1)c1cncc(Br)c1`, the inhibition is inactive: 13.8%.

Consider `COc1ccc(C(c2nnnn2C2CCCC2)N2CCC(n3c(=O)[nH]c4ccccc43)CC2)cc1` (configuration not stated), for which the inhibition was inactive: -1.95%.

Turning to `CCCOc1ccc(C(=O)NCC2(N(C)C)CCCCC2)cc1OC`, the inhibition was inactive: -3.63%.

As for `Cc1ccc(C(=O)NCC2(N(C)C)CCCCC2)o1`, the inhibition was inactive: -8.47%.

Consider `CC(C)c1ccc(NC2CCN(C(=O)OC(C)(C)C)CC2)cc1`, for which the inhibition was inactive: -55.7%.

On to `CN(C)c1cccc(C(=O)NCC2(N3CCCCC3)CCCCC2)c1`, for which the inhibition is inactive: -18.8%.

With `COc1ccc(CN(CCCl)CCCl)cc1Cl`, the inhibition was inactive: 4.26%.

As for `O=C(NCC1(N2CCOCC2)CCCCC1)c1cc(F)c(F)cc1Cl`, the inhibition is inactive: 7.49%.

Turning to `CCC(c1nnnn1C(C)(C)C)N1CCC(n2c(=O)[nH]c3ccccc32)CC1` (configuration not stated), the inhibition is inactive: -17.1%.

For the compound `COc1cc(OC)c(C(=O)NCC2(N(C)C)CCCCC2)cc1OC`, the inhibition is inactive: -0.124%.

Take `CCCCn1nnnc1C(c1ccnc2ccccc12)N1CCC(n2c(=O)[nH]c3ccccc32)CC1` (configuration not stated): the inhibition is inactive: 5.29%.

Regarding `CCOC(=O)N1CCC(Nc2ccc(C)cc2)CC1`, the inhibition was inactive: -3.95%.

As for `COc1cccc(C(c2nnnn2C(C)(C)C)N2CCC(n3c(=O)[nH]c4ccccc43)CC2)c1OC` (configuration not stated), the inhibition was inactive: 9.73%.

In the case of `O=c1[nH]c2ccccc2n1C1CCN(C(c2cccs2)c2nnnn2C2CCCC2)CC1` (configuration not stated), the inhibition was inactive: 10.8%.

Consider `O=C(OC1CN2CCC1CC2)C1c2ccccc2C=Cc2ccccc21` (configuration not stated), for which the inhibition was inactive: -11.8%.

For the compound `CCCCn1nnnc1C(c1cccc(OC)c1OC)N1CCC(n2c(=O)[nH]c3ccccc32)CC1` (configuration not stated), the inhibition was inactive: 23.8%.

On to `COc1cc(C(=O)NCC2(N3CCOCC3)CCCCC2)cc(OC)c1C`, for which the inhibition is inactive: 6.6%.

Take `CCCCn1nnnc1C(c1ccccc1)N1CCC(n2c(=O)[nH]c3ccccc32)CC1` (configuration not stated): the inhibition is inactive: 12.6%.

As to `O=C(NCC1(N2CCOCC2)CCCCC1)c1cc(Br)ccc1Cl`, the inhibition was inactive: 12.8%.

Take `O=c1[nH]c2ccccc2n1C1CCN(C(c2cccs2)c2nnnn2C2CCCCC2)CC1` (configuration not stated): the inhibition was inactive: 16.5%.

In the case of `O=c1[nH]c2ccccc2n1C1CCN(C(c2ccnc3ccccc23)c2nnnn2C2CCCC2)CC1` (configuration not stated), the inhibition was inactive: -22.2%.

Take `COc1ccc(C(=O)NCC2(N3CCOCC3)CCCCC2)cc1OC`: the inhibition was inactive: -12.5%.

On to `CN(C)C1(CNC(=O)c2cccc(C#N)c2)CCCCC1`, for which the inhibition is inactive: -1.48%.

With `Cc1cc(N(CCCl)CCCl)ccc1C=O`, the inhibition is inactive: 5.05%.

Turning to `CCCN1CCC(Nc2cc(OC)cc(OC)c2)CC1`, the inhibition was inactive: 3.93%.

As to `O=c1[nH]c2ccccc2n1C1CCN(C(c2ccccc2)c2nnnn2C2CCCC2)CC1` (configuration not stated), the inhibition was inactive: 12.1%.

As to `C/C(N)=N\P(=O)(Oc1ccccc1)Oc1ccccc1`, the inhibition is inactive: 14.9%.

On to `CC(C)(C)n1nnnc1C(c1cccc2ccccc12)N1CCC(n2c(=O)[nH]c3ccccc32)CC1` (configuration not stated), for which the inhibition is inactive: 12.1%.

Turning to `CC(C)(C)OC(=O)N1CCC(N(C(=O)c2ccccc2)c2ccc(Cl)cc2)CC1`, the inhibition is inactive: 17.9%.

As to `CCN1CCC(Nc2cccc(F)c2)CC1`, the inhibition is inactive: 1.3%.

Take `COc1ccc(C(c2nnnn2C2CCCCC2)N2CCC(n3c(=O)[nH]c4ccccc43)CC2)cc1` (configuration not stated): the inhibition was inactive: 10.1%.

Take `CC(C)(C)n1nnnc1C(c1ccnc2ccccc12)N1CCC(n2c(=O)[nH]c3ccccc32)CC1` (configuration not stated): the inhibition was inactive: 11.9%.

On to `Cc1ccccc1NC1(C#N)CCN(Cc2ccccc2)CC1`, for which the inhibition is inactive: 5.25%.

On to `CN(C)c1ccc(C(=O)NCC2(N3CCCCC3)CCCCC2)cc1`, for which the inhibition is inactive: -0.098%.

Take `Cn1c(=O)[nH]cc(N(CCCl)CCCl)c1=O`: the inhibition is inactive: 6.6%.

In the case of `O=C(NCC1(N2CCCCC2)CCCCC1)c1ccco1`, the inhibition is inactive: -12.1%.

As for `CCC(c1nnnn1C1CCCCC1)N1CCC(n2c(=O)[nH]c3ccccc32)CC1` (configuration not stated), the inhibition is inactive: 5.34%.

As to `COc1cccc(C(c2nnnn2C2CCCCC2)N2CCC(n3c(=O)[nH]c4ccccc43)CC2)c1OC` (configuration not stated), the inhibition is inactive: 28.4%.

Turning to `CC(=O)N(c1ccccc1)C1CCNCC1`, the inhibition was inactive: 8.2%.

Turning to `COc1cc(OC)cc(C(=O)NCC2(N3CCCCC3)CCCCC2)c1`, the inhibition is inactive: 13.3%.

In the case of `O=c1[nH]c2ccccc2n1C1CCN(C(c2ccnc3ccccc23)c2nnnn2C2CCCCC2)CC1` (configuration not stated), the inhibition was inactive: -13.1%.

`Fc1ccccc1NC1CCN(Cc2ccccc2)CC1`: the inhibition is inactive: -4.72%.

With `Cc1ccc(C(=O)NCC2(N3CCCCC3)CCCCC2)o1`, the inhibition was inactive: 3.8%.

As for `COc1cccc(C(=O)N(c2cc(C)cc(C)c2)C2CCN(C(=O)OC(C)(C)C)CC2)c1`, the inhibition was inactive: 5.82%.

Consider `COc1cccc(C(c2nnnn2C2CCCC2)N2CCC(n3c(=O)[nH]c4ccccc43)CC2)c1OC` (configuration not stated), for which the inhibition was inactive: 2.21%.

As for `COc1cc(OC)cc(C(=O)NCC2(N3CCOCC3)CCCCC2)c1`, the inhibition was inactive: 0.562%.

For the compound `CN1CCC(Nc2ccc(Cl)cc2)CC1`, the inhibition is inactive: 7.04%.

For the compound `CN1CCC(Nc2ccc(F)c(Cl)c2)CC1`, the inhibition is inactive: 3.09%.

For `NN(c1ccccc1)C1CCN(CCc2ccccc2)CC1`, the inhibition is inactive: 13.8%.

Turning to `O=C(O)C1(Nc2ccccc2)CCN(Cc2ccccc2)CC1`, the inhibition is inactive: 2.11%.

Regarding `CC(C)(C)OC(=O)N1CCC(Nc2ccccc2)CC1`, the inhibition was inactive: 18.7%.

As for `O=c1[nH]c2ccccc2n1C1CCN(C(c2cc3ccccc3o2)c2nnnn2C2CCCC2)CC1` (configuration not stated), the inhibition is inactive: -3.12%.

For the compound `CCCOc1ccc(C(=O)NCC2(N(C)C)CCCCC2)cc1`, the inhibition is inactive: -1.36%.

For the origin of these results see PubChem BioAssay AID720647 (Broad Institute, 2013).
